Target: PI3Kalpha (Homo sapiens (Human), UniProt P42336)
Conditions: read-out: IC50 PI3K

Amino acid sequences for entries named in this document (tags omitted).
UniProt P42336, whole entry, looked up: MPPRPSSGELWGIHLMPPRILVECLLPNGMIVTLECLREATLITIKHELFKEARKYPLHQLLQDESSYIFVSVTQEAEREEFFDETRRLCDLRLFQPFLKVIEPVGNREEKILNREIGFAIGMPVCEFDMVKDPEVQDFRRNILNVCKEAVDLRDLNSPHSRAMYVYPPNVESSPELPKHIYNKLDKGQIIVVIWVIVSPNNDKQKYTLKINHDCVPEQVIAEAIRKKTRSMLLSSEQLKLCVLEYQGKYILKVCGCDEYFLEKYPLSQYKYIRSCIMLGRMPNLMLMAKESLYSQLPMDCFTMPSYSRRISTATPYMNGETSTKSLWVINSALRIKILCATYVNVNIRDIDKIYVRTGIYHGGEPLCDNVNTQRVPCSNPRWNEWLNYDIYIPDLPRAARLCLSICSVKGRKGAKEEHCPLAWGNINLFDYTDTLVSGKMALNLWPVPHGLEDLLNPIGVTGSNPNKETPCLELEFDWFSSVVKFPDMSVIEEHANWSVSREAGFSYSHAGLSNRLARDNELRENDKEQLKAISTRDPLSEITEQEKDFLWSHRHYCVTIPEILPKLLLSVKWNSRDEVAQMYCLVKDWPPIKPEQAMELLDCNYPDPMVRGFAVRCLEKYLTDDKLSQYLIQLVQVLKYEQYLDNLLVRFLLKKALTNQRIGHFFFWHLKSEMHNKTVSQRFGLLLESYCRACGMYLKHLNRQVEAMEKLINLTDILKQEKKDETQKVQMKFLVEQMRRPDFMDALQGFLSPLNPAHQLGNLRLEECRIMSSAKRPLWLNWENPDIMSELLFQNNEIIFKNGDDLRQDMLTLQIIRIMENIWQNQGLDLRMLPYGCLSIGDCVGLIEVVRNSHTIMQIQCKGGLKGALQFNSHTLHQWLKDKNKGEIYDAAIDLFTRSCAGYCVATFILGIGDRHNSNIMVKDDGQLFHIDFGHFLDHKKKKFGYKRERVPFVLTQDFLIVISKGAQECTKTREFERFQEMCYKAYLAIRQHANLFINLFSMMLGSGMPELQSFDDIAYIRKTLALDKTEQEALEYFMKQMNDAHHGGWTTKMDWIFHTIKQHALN

Row | Structure (SMILES) | IC50 [nM]
1 | CCc1ncnc(-c2ccc(C(C)(C)C#N)cc2)c1C#Cc1ccc(N)nc1 [Example C-1] | 26
2 | CCc1ncnc(-c2ccc(C3CC3)nc2)c1C#Cc1ccc(N)nc1 [Example C-35] | 29

Source: patent publication US8633183B2 (priority 2010, dated 2014)
